From patent publication US7723071B2 (priority 1992, dated 2010)

The chains behind the UniProt entries cited, without tags or fusion partners.
UniProt P32300, whole entry V68C: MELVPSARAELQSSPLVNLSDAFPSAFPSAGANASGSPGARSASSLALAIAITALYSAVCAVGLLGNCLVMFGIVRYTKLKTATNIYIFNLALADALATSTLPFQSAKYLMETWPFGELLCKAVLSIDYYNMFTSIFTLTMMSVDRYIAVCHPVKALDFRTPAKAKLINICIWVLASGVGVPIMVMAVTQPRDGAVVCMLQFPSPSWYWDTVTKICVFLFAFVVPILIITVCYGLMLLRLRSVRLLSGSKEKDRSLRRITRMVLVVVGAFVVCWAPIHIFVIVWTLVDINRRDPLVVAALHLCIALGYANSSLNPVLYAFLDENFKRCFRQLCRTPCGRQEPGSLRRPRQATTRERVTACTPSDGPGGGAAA
UniProt P42866, whole entry R47P/S53N/H54D/V245G/R258Q: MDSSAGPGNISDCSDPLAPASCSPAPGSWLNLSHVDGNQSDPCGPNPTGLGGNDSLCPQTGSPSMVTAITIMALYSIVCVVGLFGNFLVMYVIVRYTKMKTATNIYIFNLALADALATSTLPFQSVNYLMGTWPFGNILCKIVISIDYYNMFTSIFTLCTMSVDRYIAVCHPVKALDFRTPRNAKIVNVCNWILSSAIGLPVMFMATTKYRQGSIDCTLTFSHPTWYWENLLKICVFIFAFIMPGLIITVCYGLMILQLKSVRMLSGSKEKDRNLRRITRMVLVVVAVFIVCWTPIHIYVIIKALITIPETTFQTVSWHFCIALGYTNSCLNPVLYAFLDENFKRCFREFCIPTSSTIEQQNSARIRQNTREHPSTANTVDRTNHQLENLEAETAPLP

Experiments:
[1] = target: receptor encoded by the DOR-1 clone (delta opioid receptor) (Mus musculus, UniProt P32300, V68C)
[2] = target: DOR-1 clone (delta opioid receptor) (Mus musculus, UniProt P32300, V68C)
[3] = target: T1, DOR-2 (mMOR-1) mu receptor (Mus musculus, UniProt P42866, H54D/R258Q/R47P/S53N/V245G); assay type: binding, murine
T1 construct: expressed in transfected cells

Substance | displacement of 3H-diprenorphine [1] | displacement of 3H-diprenorphine, rank in decreasing order of affinity [1] | displacement of 125I-DADLE binding [2] | displacement of 3H-DPN [3]
(D-Pen^2, D-Pen^5) enkephalin [DPDPE] | displaced | in decreasing order of affinity, was observed for DSLET, DPDPE and DADLE, and Dynorphin 1-17 | displaced by nanomolar concentrations | did not displace
(D-Ser^2) leucine enkephalin Thr [DSLET] | displaced | in decreasing order of affinity, was observed for DSLET, DPDPE and DADLE, and Dynorphin 1-17 | displaced by nanomolar concentrations | 
dynorphin 1-17 | displaced | in decreasing order of affinity, was observed for DSLET, DPDPE and DADLE, and Dynorphin 1-17 |  | 
